According to US7375215B2, “Compounds for PDT” (Bioscience Technology Investment Holdings Limited, priority 2000, dated 2008):

Test: Plasma and tissue photosensitiser concentrations in tumour-bearing mice
Experimental: Adult female Balb/c mice bearing the syngeneic colo26 tumour implanted subcutaneously were produced using methods previously described (Ansell et al. Lasers in Medical Science 1997, 12, 336-41). Groups of mice of weight 19-22 g were given the photosensitisers at a dose of 0.88 μmol kg^−1 (equivalent to 0.6 mg kg^−1 in the case of m-THPC) by injection into the tail vein. The solutions for injection of each compound were prepared at a concentration of 0.352 μmol ml^−1 so that a typical 20 g mouse would be injected with a volume of 50 μl.
Animals were sacrificed at 6, 24, 72 and 192 hours after injection of each photosensitiser. Immediately after sacrifice, blood was obtained by cardiac puncture, and centrifuged at 13,000×g for three minutes. […] The photosensitiser content of each sample was measured from the fluorescence of an extract obtained using methanol:DMSO (3:5, v:v). A 50 μl portion of each extract was transferred to a disposable fluorescence cuvette and the fluorescence determined using an excitation wavelength of 418 nm and emission wavelength of 650 nm with an eight second response setting. […] The measurement protocol was designed to dilute each sample to a sufficient extent to avoid interference by endogenous chromophores (absorbance of samples <<0.1 at the excitation wavelength).
The selectivity for tumour specific tissue distribution was also evaluated in this work. […]

tetrakis (6′-(methoxy PEG 2000 carbamate)1′-isocyanate hexamethylene) derivative of 7,8dihydro-5,10,15,20-tetrakis(3-hydroxyphenyl)porphyrin [SPC 0172]
Tumour:muscle ratio, fold higher than that observed with m-THPC (72 hours post-administration): 2-3 fold
Excretion from the liver (compared with m-THPC): in a comparable period to m-THPC
